Measurements from PubChem BioAssay (NCI).
Some of these compounds have results that are not shown, active ones among them.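 Following 48 hours of exposure in 96-well plates, responses at five concentrations were used to interpolate endpoints linearly. Here, GI50 denotes the concentration required for 50% inhibition of growth. TGI: concentration producing complete growth inhibition.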

Experiments:
Experiment in all cases: NCI-60 cell line screen, 48 h
SK-MEL-28 melanoma = system: SK-MEL-28 melanoma
OVCAR-5 ovarian = system: OVCAR-5 ovarian
U251 CNS = system: U251 CNS
CAKI-1 renal = system: CAKI-1 renal
M14 melanoma = system: M14 melanoma
UO-31 renal = system: UO-31 renal
OVCAR-8 ovarian = system: OVCAR-8 ovarian
MALME-3M melanoma = system: MALME-3M melanoma
786-0 renal = system: 786-0 renal
NCI-H23 lung = system: NCI-H23 lung
SW-620 colon = system: SW-620 colon
SF-295 CNS = system: SF-295 CNS
HT29 colon = system: HT29 colon
SF-539 CNS = system: SF-539 CNS
SK-OV-3 ovarian = system: SK-OV-3 ovarian
OVCAR-3 ovarian = system: OVCAR-3 ovarian
T-47D breast = system: T-47D breast
NCI/ADR-RES ovarian = system: NCI/ADR-RES ovarian
HL-60(TB) leukemia = system: HL-60(TB) leukemia
SN12C renal = system: SN12C renal
MDA-MB-231 breast = system: MDA-MB-231 breast
MOLT-4 leukemia = system: MOLT-4 leukemia
SK-MEL-5 melanoma = system: SK-MEL-5 melanoma
HCT-116 colon = system: HCT-116 colon
SNB-75 CNS = system: SNB-75 CNS
CCRF-CEM leukemia = system: CCRF-CEM leukemia
LOX IMVI melanoma = system: LOX IMVI melanoma

Compound `C=C(C)C#CC(O)(C(=O)OC1CN2CCC1CC2)C(C)C` (stereo not drawn) has a TGI (SK-MEL-28 melanoma) greater than 100 µM, a GI50 (OVCAR-5 ovarian) greater than 100 µM and a TGI (OVCAR-5 ovarian) greater than 100 µM. The GI50 (U251 CNS) was greater than 100 µM, the TGI (U251 CNS) was greater than 100 µM and the GI50 (CAKI-1 renal) was greater than 100 µM. The TGI (CAKI-1 renal) was greater than 100 µM, the GI50 (M14 melanoma) was greater than 100 µM and the TGI (M14 melanoma) was greater than 100 µM. The GI50 (UO-31 renal) was greater than 100 µM, the TGI (UO-31 renal) was greater than 100 µM and the GI50 (OVCAR-8 ovarian) was greater than 100 µM. The TGI (OVCAR-8 ovarian) was greater than 100 µM, the GI50 (MALME-3M melanoma) was greater than 100 µM and the TGI (MALME-3M melanoma) was greater than 100 µM. For the same compound, the GI50 (786-0 renal) was greater than 100 µM, the TGI (786-0 renal) was greater than 100 µM and the GI50 (NCI-H23 lung) was greater than 100 µM. The TGI (NCI-H23 lung) was greater than 100 µM, the GI50 (SW-620 colon) was greater than 100 µM and the TGI (SW-620 colon) was greater than 100 µM. The GI50 (SF-295 CNS) was greater than 100 µM, the TGI (SF-295 CNS) was greater than 100 µM and the GI50 (HT29 colon) was greater than 100 µM. The TGI (HT29 colon) was greater than 100 µM, the GI50 (SF-539 CNS) was greater than 100 µM and the TGI (SF-539 CNS) was greater than 100 µM. For the same compound, the GI50 (SK-OV-3 ovarian) was greater than 100 µM, the TGI (SK-OV-3 ovarian) was greater than 100 µM and the GI50 (OVCAR-3 ovarian) was greater than 100 µM. For the same compound, the TGI (OVCAR-3 ovarian) was greater than 100 µM, the GI50 (T-47D breast) was greater than 100 µM and the TGI (T-47D breast) was greater than 100 µM. The GI50 (NCI/ADR-RES ovarian) was greater than 100 µM, the TGI (NCI/ADR-RES ovarian) was greater than 100 µM and the GI50 (HL-60(TB) leukemia) was greater than 100 µM. The TGI (HL-60(TB) leukemia) was greater than 100 µM, the GI50 (SN12C renal) was greater than 100 µM and the TGI (SN12C renal) was greater than 100 µM. The GI50 (MDA-MB-231 breast) was greater than 100 µM, the TGI (MDA-MB-231 breast) was greater than 100 µM and the GI50 (MOLT-4 leukemia) was greater than 100 µM. It also gave a TGI (MOLT-4 leukemia) greater than 100 µM, a GI50 (SK-MEL-5 melanoma) greater than 100 µM and a TGI (SK-MEL-5 melanoma) greater than 100 µM. The GI50 (HCT-116 colon) was greater than 100 µM, the TGI (HCT-116 colon) was greater than 100 µM and the GI50 (SNB-75 CNS) was greater than 100 µM. The TGI (SNB-75 CNS) was greater than 100 µM, the GI50 (CCRF-CEM leukemia) was greater than 100 µM and the TGI (CCRF-CEM leukemia) was greater than 100 µM. It also gave a GI50 (LOX IMVI melanoma) greater than 100 µM and a TGI (LOX IMVI melanoma) greater than 100 µM.
